In this assay the target is T1, human factor Xa (Homo sapiens, UniProt P00742).
T1 construct: 25 μl human factor Xa (Enzyme Research Laboratories, Inc; South Bend, Ind.); purchased Enzyme Research Laboratories, Inc; South Bend, Ind
Put plainly: Factor Xa chromogenic assay (substrate S-2765). The format is biochemical. Particulars: Ki calculated from IC50 corrected for substrate competition; 25° C., 0.5 nM enzyme, 140 μM substrate S-2765; read-out: Ki(FXa), inhibition constant for inhibition of factor Xa. As for the experimental part:
The ability of the compounds of the formula I to inhibit factor Xa or factor VIIa or other enzymes like thrombin, plasmin, or trypsin can be assessed by determining the concentration of the compound of the formula I that inhibits enzyme activity by 50%, i. e. the IC50 value, which is related to the inhibition constant Ki. Purified enzymes are used in chromogenic assays. […]
The assay was performed by pre-incubating the compound of formula I plus enzyme for 10 min. […] The initial velocity of chromogenic substrate hydrolysis was measured by the change in absorbance at 405 nm using a Bio-tek Instruments kinetic plate reader (Ceres UV900HDi) at 25° C. during the linear portion of the time course (usually 1.5 min after addition of substrate). […]

By UniProt entry, the sequences of proteins in these tests, tags left out. Residues count along the entry.
UniProt P00742, 41-179 partner limits assumed: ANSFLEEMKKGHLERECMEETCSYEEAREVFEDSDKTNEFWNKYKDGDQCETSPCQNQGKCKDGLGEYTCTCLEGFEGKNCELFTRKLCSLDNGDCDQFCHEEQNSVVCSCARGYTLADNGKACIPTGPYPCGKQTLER
UniProt P00742, 235-488 limits assumed: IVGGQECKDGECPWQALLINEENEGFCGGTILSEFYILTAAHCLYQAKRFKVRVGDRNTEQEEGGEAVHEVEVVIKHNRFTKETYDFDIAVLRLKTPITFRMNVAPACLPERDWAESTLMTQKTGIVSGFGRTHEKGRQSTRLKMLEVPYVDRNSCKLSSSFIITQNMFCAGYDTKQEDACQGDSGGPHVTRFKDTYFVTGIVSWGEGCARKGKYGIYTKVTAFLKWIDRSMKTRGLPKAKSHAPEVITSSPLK

For 1 compound, Ki results are on record in US7435747B2, “Guanidine and amidine derivatives as factor Xa inhibitors” (Sanofi-Aventis Deutschland GmbH, priority 2000, dated 2008).

Take `Cc1ccc(C(=O)NCC2CCN(/C(N)=N/C(=O)OCc3ccccc3)CC2)cc1OCCc1ccc(Cl)cc1Cl` [Example 14, {Amino-[4-({3-[2-(2,4-dichloro-phenyl)-ethoxy]-4-methyl-benzoylamino}-methyl)-piperidin-1-yl]-methylene}-carbamic acid benzyl ester]: the Ki was 5.08 µM.

Broadly, the Ki is a measure of affinity in units of concentration, obtained from inhibition or displacement.
